The subject of assay [1] is NudT9H domain. Put plainly: ITC measurement of CaM binding to intact NudT9H. Set-up: species or system human. A general note: In ITC the heat of successive injections is recorded.
Assay [2] relates to NudT9H domain. Put plainly: Thermal unfolding of NudT9H by nDSF. It counts as binding, human. The following applies: NudT9H 0.2 mg/ml with 1.0 mg/ml Ca2+-CaM, 1 °C/min, 25 mM Tris pH 7.4, 150 mM NaCl, 2 mM CaCl2, 10% glycerol. A general note: In DSF a fluorescence change marks the thermal transition of the protein.
The subject of the next assay is TRPM2. As to conditions: ref [23]; cited from earlier work. The source says: TRPM2 is regulated by a multitude of factors including intracellular nucleotides, calcium [[14], [15], [16]], temperature, phosphorylation and pH [19]. […] 2′-deoxy-ADPR is an endogenous nucleotide that can be synthesized from n ... || Besides its modulation by nucleotides and Ca^2+, TRPM2 is also affected by temperature making it one of so far nine thermosensitive TRP channels (thermoTRPs).

Bounds are passed on as bounds.

Turning to calmodulin [Ca^2+-CaM], in the assay with NudT9H domain [1] (binding occurs upon partial unfolding of NudT9H), the “temperature of Ca2+-CaM binding to NudT9H (upon partial unfolding)” value was greater than 35 °C. The “binding to NudT9H” value with NudT9H domain [1] (room temperature, ITC, 600 μM CaM into 24 μM NudT9H, 25 mM Tris pH 7.4, 150 mM NaCl) was “could not detect binding at room temperature”. Besides, in the assay with NudT9H domain [2], the “change of nDSF profile of NudT9H” value is “decrease in the fluorescence emission at 350 nm (F350) and an increase in F330”. The “binding to TRPM2” value with TRPM2 is “binds to an IQ-like motif in the N-terminus of TRPM2”.

These data come from paper PMC6646794 (Biochimica et Biophysica Acta. Molecular Cell Research, 2019).
